Data published in ChEMBL document CHEMBL1955766, “Structure guided development of novel thymidine mimetics targeting Pseudomonas aeruginosa thymidylate kinase: from hit to lead generation” (J Med Chem, 2012).

Test: Inhibition of Pseudomonas aeruginosa thymidylate kinase expressed in Escherichia coli BL21 (DE3) cells assessed as phosphorylation of dTMP to dTDP after 20 mins by spectrophotometric analysis
Outline: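 PaTMK from pET15b in E. coli BL21 DE3, purified by HisTrap and Superdex 200, used at 40 nM. dTDP formation was coupled via PK/LDH/NDP kinase to NADH oxidation (A340) over 20 min at 25 °C. Conditions: 2 mM ATP, 54 μM TMP, 2 mM PEP, 0.22 mM NADH, HEPES pH 8.0. 20-point 1.67-fold dilutions from 200 or 100 μM were run in duplicate; IC50 from initial rates, averaged over ≥2 runs.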

Row | SMILES | IC50 [µM]
1 | Cn1c(=O)[nH]c2ncc(-c3ccccc3)cc21 | 58
2 | Cn1c(=O)[nH]c2ncc(-c3cccc(C(N)=O)c3)cc21 | 0.44
3 | Cc1cn([C@H]2C[C@H](O)[C@@H](CF)O2)c(=O)[nH]c1=O | 20
